Assay results as given in ChEMBL document CHEMBL4177698, “Discovery and in vivo effects of novel human natriuretic peptide receptor A (NPR-A) agonists with improved activity for rat NPR-A” (Bioorg Med Chem, 2017).

Assays:
[1] = biological target: T1, Atrial natriuretic peptide receptor 1 (Rattus norvegicus) (UniProt P18910); assay: (§1) Agonist activity at rat NPR-A expressed in CHO cells assessed as increase in cGMP accumulation after 15 mins by fluorescent assay; type: cell-based
T1 sequence (whole entry): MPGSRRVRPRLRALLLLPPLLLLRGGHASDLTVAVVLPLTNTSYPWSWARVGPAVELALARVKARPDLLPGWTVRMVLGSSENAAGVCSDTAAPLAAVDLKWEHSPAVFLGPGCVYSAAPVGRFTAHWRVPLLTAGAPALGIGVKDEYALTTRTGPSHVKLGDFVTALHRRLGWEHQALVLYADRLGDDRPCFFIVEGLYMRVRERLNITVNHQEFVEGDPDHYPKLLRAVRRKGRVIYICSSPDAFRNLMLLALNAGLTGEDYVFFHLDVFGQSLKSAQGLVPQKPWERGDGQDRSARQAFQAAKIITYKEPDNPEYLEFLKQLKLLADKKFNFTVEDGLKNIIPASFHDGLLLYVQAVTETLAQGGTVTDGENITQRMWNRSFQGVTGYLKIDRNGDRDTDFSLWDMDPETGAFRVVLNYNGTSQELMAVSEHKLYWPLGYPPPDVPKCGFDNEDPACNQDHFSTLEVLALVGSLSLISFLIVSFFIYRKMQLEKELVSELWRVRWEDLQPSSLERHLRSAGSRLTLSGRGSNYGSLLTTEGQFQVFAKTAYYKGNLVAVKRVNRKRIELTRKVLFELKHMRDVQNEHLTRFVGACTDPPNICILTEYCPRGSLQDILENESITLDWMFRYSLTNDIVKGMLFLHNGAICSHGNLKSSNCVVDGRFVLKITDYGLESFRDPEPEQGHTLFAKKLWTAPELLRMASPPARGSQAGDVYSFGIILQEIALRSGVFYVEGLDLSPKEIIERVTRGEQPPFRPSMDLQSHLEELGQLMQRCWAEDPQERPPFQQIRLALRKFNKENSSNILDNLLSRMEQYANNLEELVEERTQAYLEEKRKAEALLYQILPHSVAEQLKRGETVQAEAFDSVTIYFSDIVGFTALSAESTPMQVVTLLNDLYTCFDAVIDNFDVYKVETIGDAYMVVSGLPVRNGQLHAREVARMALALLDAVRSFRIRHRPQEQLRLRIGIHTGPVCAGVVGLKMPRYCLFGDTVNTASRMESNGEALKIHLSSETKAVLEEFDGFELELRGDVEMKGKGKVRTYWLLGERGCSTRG

[2] = biological target: T2, Atrial natriuretic peptide receptor 1 (Rattus norvegicus, UniProt P18910); assay: as §1; type: cell-based
T2 sequence (P18910 whole entry): T1 sequence (whole entry)

For `CC[C@H](C)[C@@H]1NC(=O)[C@H](CCCNC(=N)N)NC(=O)[C@H](CC(=O)O)NC(=O)[C@H]([C@@H](C)CC)NC(=O)[C@H](CCCNC(=N)N)NC(=O)CNC(=O)CNC(=O)[C@H](Cc2ccccc2)NC(=O)[C@@H](NC(=O)[C@H](CO)NC(=O)[C@H](CO)NC(=O)[C@H](CCCNC(=N)N)NC(=O)[C@H](CCCNC(=N)N)NC(=O)[C@H](CC(C)C)NC(=O)[C@@H](N)CO)CSSC[C@@H](C(=O)N[C@@H](CC(N)=O)C(=O)N[C@@H](CO)C(=O)N[C@@H](Cc2ccccc2)C(=O)N[C@@H](CCCNC(=N)N)C(=O)N[C@@H](Cc2ccc(O)cc2)C(=O)O)NC(=O)CNC(=O)[C@H](CC(C)C)NC(=O)CNC(=O)[C@@H](CO)NC(=O)[C@H](CCC(N)=O)NC(=O)[C@H](C)NC(=O)CNC1=O`, the Emax [1] was 100% and the EC50 [2] was 1 nM.
